Data as given in patent publication US10202378B2, “Therapeutic compounds and uses thereof” (GENENTECH, INC., priority 2015, dated 2019).

Columns and labels:
TAF1-BD2 = TAF1-BD2 (Homo sapiens, UniProt P21675); test: TAF1-BD2 TR-FRET Binding Assay; settings: read-out: TAF1-BD2 HTRF IC50
Method: IC50 Measurements for Inhibitors Using TAF1-BD2 TR-FRET Binding Assay
His/Flag epitope tagged TAF1-BD21504-1635 was cloned, expressed, and purified to homogeneity. TAF1-BD2 binding and inhibition was assessed by monitoring the engagement of a biotinylated small molecule compound 1000 with the target using the TR-FRET assay technology (Perkin-Elmer). Specifically, in a 384 well ProxiPlate, TAF1-BD2 (0.012 uM final) in 50 mM HEPES (pH 7.5; final), 50 mM NaCl (final), 1 mM TCEP (final), 0.1 mg/mL BSA (final), and 0.069 mM Brij-35 (final) was added either in the presence of DMSO (final 0.2% DMSO) or compound dilution series in DMSO. After a 10 minute incubation at room temperature, biotin-ligand (0.04 uM final) was added. After 10 minutes incubation at room temperature, a mixture Eu-W1024 Anti-6×His antibody (Perkin Elmer AD0110) and SureLight™ Streptavidin-Allophycocyanin (SA-APC, Perkin Elmer CR130-100) were added to a final concentration of 0.2 nM antibody and 0.025 uM SA-APC, respectively. After forty minutes of equilibration at room temperature, the plates were read on an Envision instrument and IC50s calculated using a four parameter logistic model (XLFIT).

TAF1-BD1 = TAF1-BD1 (Homo sapiens, UniProt P21675); test: TAF1-BD1 TR-FRET Binding Assay; settings: read-out: TAF1-BD1 HTRF IC50
Method: IC50 Measurements for Inhibitors Using TAF1-BD1 TR-FRET Binding Assay
His/Flag epitope tagged TAF1-BD11381-1497 was cloned, expressed, and purified to homogeneity. TAF1-BD binding and inhibition was assessed by monitoring the engagement of a biotinylated small molecule compound 1000 with the target using the TR-FRET assay technology (Perkin-Elmer). Specifically, in a 384 well ProxiPlate, TAF1-BDI (0.08 uM final) in 50 mM HEPES (pH 7.5; final), 50 mM NaCl (final), 1 mM TCEP (final), 0.1 mg/mL BSA (final), and 0.069 mM Brij-35 (final) was added either in the presence of DMSO (final 0.2% DMSO) or compound dilution series in DMSO. After a 10 minute incubation at room temperature, biotin-ligand (0.08 uM final) was added. After 10 minutes incubation at room temperature, a mixture Eu-W1024 Anti-6×His antibody (Perkin Elmer ADO 110) and SureLight™ Streptavidin-Allophycocyanin (SA-APC, Perkin Elmer CR130-100) were added to final concentrations of 0.2 nM antibody and 0.05 uM SA-APC, respectively. After forty minutes of equilibration at room temperature, the plates were read on an Envision instrument and IC50s calculated using a four parameter logistic model (XLFIT).

IC50 (TAF1-BD2) | IC50 (TAF1-BD1) | SMILES
30.8 nM | 205 nM | Cc1[nH]c2c(=O)n(C)cc(C#CC(C)(O)C3CC3)c2c1-c1nnc(CN(C)C)o1 (single isomer, unassigned) [Example 97b, 4-(3-cyclopropyl-3-hydroxy-but-1-ynyl)-3-[5-[(dimethylamino)methyl]-1,3,4-oxadiazol-2-yl]-2,6-dimethyl-1H-pyrrolo[2,3-c]pyridin-7-one]
68.7 nM | 484 nM | Cc1[nH]c2c(=O)n(C)cc(C#CC(O)(c3ccccc3)C(F)(F)F)c2c1-c1nnc(CN(C)C)o1 (centres unmarked) [Example 186, 3-[5-[(dimethylamino)methyl]-1,3,4-oxadiazol-2-yl]-2,6-dimethyl-4-(4,4,4-trifluoro-3-hydroxy-3-phenyl-but-1-ynyl)-1H-pyrrolo[2,3-c]pyridin-7-one]
48.3 nM | 360 nM | Cc1[nH]c2c(=O)n(C)cc(C#CC(C)(C)O)c2c1C(=O)OC(C)C [Example 131, isopropyl 4-(3-hydroxy-3-methyl-but-1-ynyl)-2,6-dimethyl-7-oxo-1H-pyrrolo[2,3-c]pyridine-3-carboxylate]
385 nM | 1240 nM | Cc1[nH]c2c(=O)n(C)cc(C#CC(C)(O)C3CC3)c2c1-c1nnc(CN(C)C)o1 (single isomer, unassigned) [Example 97a, 4-(3-cyclopropyl-3-hydroxy-but-1-ynyl)-3-[5-[(dimethylamino)methyl]-1,3,4-oxadiazol-2-yl]-2,6-dimethyl-1H-pyrrolo[2,3-c]pyridin-7-one]
74.8 nM | 1870 nM | Cc1[nH]c2c(=O)n(C)cc(C#CC(C)(C)O)c2c1C(=O)OCC1CCN(C)CC1 [Example 143, (1-methyl-4-piperidyl)methyl 4-(3-hydroxy-3-methyl-but-1-ynyl)-2,6-dimethyl-7-oxo-1H-pyrrolo[2,3-c]pyridine-3-carboxylate]
143 nM | 920 nM | Cc1[nH]c2c(=O)n(C)cc(C#CC(O)(c3ccccc3)C(F)(F)F)c2c1-c1nnc(CN(C)C)o1 (single isomer, unassigned) [Example 95a, 3-[5-[(dimethylamino)methyl]-1,3,4-oxadiazol-2-yl]-2,6-dimethyl-4-(4,4,4-trifluoro-3-hydroxy-3-phenyl-but-1-ynyl)-1H-pyrrolo[2,3-c]pyridin-7-one]
89.9 nM | 338 nM | CCOC(=O)c1c(C)[nH]c2c(=O)n(C)cc(C#CC(C)(O)c3ccncc3)c12 (centres unmarked) [Example 27, ethyl 4-[3-hydroxy-3-(4-pyridyl)but-1-ynyl]-2,6-dimethyl-7-oxo-1H-pyrrolo[2,3-c]pyridine-3-carboxylate]
37.2 nM | 166 nM | Cc1[nH]c2c(=O)n(C)cc(C#CC(C)(O)C3CC3)c2c1C(=O)OCc1cccc(CO)c1 (centres unmarked) [Example 106, [3-(hydroxymethyl)phenyl]methyl 4-(3-cyclopropyl-3-hydroxy-but-1-ynyl)-2,6-dimethyl-7-oxo-1H-pyrrolo[2,3-c]pyridine-3-carboxylate]
40.8 nM | 511 nM | CCOC(=O)c1c(C)[nH]c2c(=O)n(C)cc(C#CC3(O)CCOC3)c12 (centres unmarked) [Example 31]
 | 324 nM | Cc1[nH]c2c(=O)n(C)cc(C#CC(C)(O)C3CC3)c2c1-c1nnc(CN(C)C)o1 (centres unmarked) [Example 185, 4-(3-cyclopropyl-3-hydroxy-but-1-ynyl)-3-[5-[(dimethylamino)methyl]-1,3,4-oxadiazol-2-yl]-2,6-dimethyl-1H-pyrrolo[2,3-c]pyridin-7-one]
36.9 nM | 295 nM | Cc1[nH]c2c(=O)n(C)cc(C#CC(C)(C)O)c2c1C(=O)OC1CCCCC1 [Example 159, cyclohexyl 4-(3-hydroxy-3-methyl-but-1-ynyl)-2,6-dimethyl-7-oxo-1H-pyrrolo[2,3-c]pyridine-3-carboxylate]
38.8 nM | 331 nM | CCCC(C)(C)OC(=O)c1c(C)[nH]c2c(=O)n(C)cc(C#CC(C)(C)O)c12 [Example 147, 1,1-dimethylbutyl 4-(3-hydroxy-3-methyl-but-1-ynyl)-2,6-dimethyl-7-oxo-1H-pyrrolo[2,3-c]pyridine-3-carboxylate]
22.6 nM | 85.3 nM | Cc1[nH]c2c(=O)n(C)cc(C#CC(C)(C)O)c2c1C(=O)OCC1CCCCC1 [Example 153, cyclohexylmethyl 4-(3-hydroxy-3-methyl-but-1-ynyl)-2,6-dimethyl-7-oxo-1H-pyrrolo[2,3-c]pyridine-3-carboxylate]
 | 192 nM | Cc1[nH]c2c(=O)n(C)cc(C#CC(O)(c3ccccc3)C(F)(F)F)c2c1-c1nnc(C(C)C)o1 (single isomer, unassigned) [Example 94a, 3-(5-isopropyl-1,3,4-oxadiazol-2-yl)-2,6-dimethyl-4-(4,4,4-trifluoro-3-hydroxy-3-phenyl-but-1-ynyl)-1H-pyrrolo[2,3-c]pyridin-7-one]
49.5 nM | 492 nM | Cc1[nH]c2c(=O)n(C)cc(C#CC(O)(c3ccccc3)C(F)(F)F)c2c1-c1nnc(C(C)C)o1 (centres unmarked) [Example 189, 3-(5-isopropyl-1,3,4-oxadiazol-2-yl)-2,6-dimethyl-4-(4,4,4-trifluoro-3-hydroxy-3-phenyl-but-1-ynyl)-1H-pyrrolo[2,3-c]pyridin-7-one]
41.3 nM | 274 nM | Cc1ccccc1COC(=O)c1c(C)[nH]c2c(=O)n(C)cc(C#CC(C)(O)CO)c12 (centres unmarked) [Example 129, o-tolylmethyl 4-(3,4-dihydroxy-3-methyl-but-1-ynyl)-2,6-dimethyl-7-oxo-1H-pyrrolo[2,3-c]pyridine-3-carboxylate]
 | 211 nM | Cc1[nH]c2c(=O)n(C)cc(C#CC(O)(c3ccccc3)C(F)(F)F)c2c1-c1nnc(CN(C)C)o1 (single isomer, unassigned) [Example 95b, 3-[5-[(dimethylamino)methyl]-1,3,4-oxadiazol-2-yl]-2,6-dimethyl-4-(4,4,4-trifluoro-3-hydroxy-3-phenyl-but-1-ynyl)-1H-pyrrolo[2,3-c]pyridin-7-one]
39.7 nM | 128 nM | Cc1ccc(COC(=O)c2c(C)[nH]c3c(=O)n(C)cc(C#CC(C)(C)O)c23)cc1 [Example 117, p-tolylmethyl 4-(3-hydroxy-3-methyl-but-1-ynyl)-2,6-dimethyl-7-oxo-1H-pyrrolo[2,3-c]pyridine-3-carboxylate]
286 nM | 595 nM | CCOC(=O)c1c(C)[nH]c2c(=O)n(C)cc(C#C[C@](C)(O)c3cc(C)on3)c12 [Example 34, ethyl 4-[(3S)-3-hydroxy-3-(5-methylisoxazol-3-yl)but-1-ynyl]-2,6-dimethyl-7-oxo-1H-pyrrolo[2,3-c]pyridine-3-carboxylate]
 | 136 nM | CCOC(=O)c1c(C)[nH]c2c(=O)n(C)cc(C#C[C@@](C)(O)c3cc(C)on3)c12 [Example 38, ethyl 4-[(3R)-3-hydroxy-3-(5-methylisoxazol-3-yl)but-1-ynyl]-2,6-dimethyl-7-oxo-1H-pyrrolo[2,3-c]pyridine-3-carboxylate]
48.3 nM | 304 nM | Cc1[nH]c2c(=O)n(C)cc(C#CC(C)(C)O)c2c1C(=O)OCc1cccnc1 [Example 114, 3-pyridylmethyl 4-(3-hydroxy-3-methyl-but-1-ynyl)-2,6-dimethyl-7-oxo-1H-pyrrolo[2,3-c]pyridine-3-carboxylate]
63.7 nM | 395 nM | CCOC(=O)c1c(C)[nH]c2c(=O)n(C)cc(C#CC(O)(c3cc(C)cc(O)c3)C(F)(F)F)c12 (centres unmarked) [Example 85, ethyl 2,6-dimethyl-7-oxo-4-[4,4,4-trifluoro-3-hydroxy-3-(3-hydroxy-5-methyl-phenyl)but-1-ynyl]-1H-pyrrolo[2,3-c]pyridine-3-carboxylate]
126 nM | 949 nM | Cc1[nH]c2c(=O)n(C)cc(C#CC(O)(c3ccccc3)C(F)(F)F)c2c1-c1nnc(C(C)C)o1 (single isomer, unassigned) [Example 94b, 3-(5-isopropyl-1,3,4-oxadiazol-2-yl)-2,6-dimethyl-4-(4,4,4-trifluoro-3-hydroxy-3-phenyl-but-1-ynyl)-1H-pyrrolo[2,3-c]pyridin-7-one]
38.8 nM | 212 nM | CCOC(=O)c1c(C)[nH]c2c(=O)n(C)cc(C#CC(C)(O)Cc3ccccc3)c12 (centres unmarked) [Example 16, ethyl 4-(3-hydroxy-3-methyl-4-phenyl-but-1-ynyl)-2,6-dimethyl-7-oxo-1H-pyrrolo[2,3-c]pyridine-3-carboxylate]
